Experimental findings from patent publication US20040002079A1, “Sodium-phosphate cotransporter in lithium therapy for the treatment of mental illness” (priority 1998, published 2004) are described below.

The term Km denotes the concentration of substrate that gives half-maximal velocity.

The target in assay [1] is T1, sodium-phosphate cotransporter (Homo sapiens, UniProt Q8WUM9).
T1 sequence (Q8WUM9 1-679): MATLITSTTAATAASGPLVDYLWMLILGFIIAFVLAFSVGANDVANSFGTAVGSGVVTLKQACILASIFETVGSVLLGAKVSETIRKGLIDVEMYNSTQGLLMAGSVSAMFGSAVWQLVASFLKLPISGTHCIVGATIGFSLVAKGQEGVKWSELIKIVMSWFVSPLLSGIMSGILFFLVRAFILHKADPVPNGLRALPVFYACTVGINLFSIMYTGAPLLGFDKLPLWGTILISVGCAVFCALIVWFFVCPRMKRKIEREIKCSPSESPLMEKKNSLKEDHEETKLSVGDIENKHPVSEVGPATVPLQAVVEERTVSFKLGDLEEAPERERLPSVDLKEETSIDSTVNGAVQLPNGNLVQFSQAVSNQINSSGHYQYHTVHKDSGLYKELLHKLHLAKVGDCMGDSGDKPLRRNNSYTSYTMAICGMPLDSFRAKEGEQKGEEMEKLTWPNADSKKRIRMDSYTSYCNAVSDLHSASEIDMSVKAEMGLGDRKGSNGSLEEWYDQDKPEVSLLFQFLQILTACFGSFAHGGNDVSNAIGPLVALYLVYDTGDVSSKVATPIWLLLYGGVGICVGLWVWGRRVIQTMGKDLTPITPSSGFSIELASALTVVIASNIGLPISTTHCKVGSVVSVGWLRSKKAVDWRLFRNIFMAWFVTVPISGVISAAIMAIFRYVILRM
Kind of assay: Na-dependent 32PO4 influx into erythroleukemic K562 cells. Set-up: influx into the erythroleukemic line of K562 cells was measured; endogenous in cells; host or cells: K562 erythroleukemic cells. The assay is classed as cell-based.

Assay [2] has as its target T1, sodium-phosphate cotransporter. The assay is classed as cell-based. Particulars: 1, 7.5 and 75 mM external sodium. The arrangement: influx into the erythroleukemic line of K562 cells was measured; endogenous in cells; host or cells: K562 erythroleukemic cells.
The target is the same in assay [3]. Particulars: external phosphate, with external lithium and 10^-5 M ouabain.

Turning to `[Cs+]` [Cs], in assay [1], the “activation of phosphate influx” value is recorded as “no activation”.

On to `[Li]` [lithium, Lithium], for which, in assay [1] (140 mM Li, K562 cells), the “phosphate influx relative to that in the presence of 140 mM Na” value came to 18.7%.

On to `[Na+]` [sodium], for which the “effect on lithium activation of phosphate influx” value in assay [2] was “increased”. Moreover, in assay [1], the “K1/2^Na for 32PO4 influx” value was found to be 40 mM and the “activation of 32PO4 influx compared to isomolar N-methyl-D-glucamine” value was “over 100 fold”. With arsenate, the Ki in assay [1] (read-out: K1 value for inhibition of Na-dependent 32PO4 influx) was 2600 µM.

With phosphate, the “Vmax of 32PO4 influx” value in assay [1] (pH 7.4 at 37° C., 140 mM Na) was 4500 nmol PO4/g protein−min. The Km in assay [1] (pH 7.4 at 37° C., 140 mM Na, read-out: Km^PO4 for activation of 32PO4 influx by extracellular phosphate) is 360 µM. Also, the “effect on lithium-stimulated Na efflux” value in assay [3] is on record as “further stimulated”.
